Reference: patent EP0604354B1, “Antidepressant and antiparkinsonian compounds” (N[…]/S, priority 1992, dated 1994)

The chains behind the UniProt entries cited, without tags or fusion partners.
UniProt P23977, whole entry: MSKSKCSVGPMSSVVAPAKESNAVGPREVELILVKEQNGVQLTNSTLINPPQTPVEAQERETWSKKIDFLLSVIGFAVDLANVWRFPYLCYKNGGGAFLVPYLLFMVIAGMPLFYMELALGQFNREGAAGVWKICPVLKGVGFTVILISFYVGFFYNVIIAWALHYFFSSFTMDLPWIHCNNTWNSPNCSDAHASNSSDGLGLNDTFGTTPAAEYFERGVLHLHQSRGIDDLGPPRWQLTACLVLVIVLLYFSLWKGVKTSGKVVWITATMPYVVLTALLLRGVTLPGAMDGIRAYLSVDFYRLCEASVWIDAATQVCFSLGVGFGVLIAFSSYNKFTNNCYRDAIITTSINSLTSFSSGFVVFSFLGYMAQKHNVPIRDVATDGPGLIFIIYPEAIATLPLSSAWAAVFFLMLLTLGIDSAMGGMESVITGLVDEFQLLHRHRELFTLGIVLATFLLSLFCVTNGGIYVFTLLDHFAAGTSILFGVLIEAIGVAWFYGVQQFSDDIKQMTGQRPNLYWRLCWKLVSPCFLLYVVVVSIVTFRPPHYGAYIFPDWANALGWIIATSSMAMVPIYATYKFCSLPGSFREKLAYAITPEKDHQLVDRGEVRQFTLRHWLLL

Target: T1, reuptake of dopamine in synaptosomes of rat forebrain (Rattus norvegicus, UniProt P23977)
T1 construct: Fresh whole forebrain (at 0-4°C) from male Wistar rats (150-200 g) is homogenized; from tissue; host or cells: male Wistar rat whole forebrain, crude synaptosomal supernatant
Assay: inhibition of reuptake of 3H-dopamine in synaptosomes of rat forebrain
Assay type: biochemical
Details: potency ratio versus Win 35,428
Experimental: The homogenate is centrifuged at 1000 x g (∼ 2900 rpm) for 10 min.
A Krebs Buffer (119 mM NaCI, 24 mM NaHCO3, 2.1 mM KCI, 1.2 mM KH2PO4, 1.8 mM CaCl2, 2 mM MgSO4, 7H2O, 12 mM glucose) is equilibrated with an atmosphere of 96% O2: 4% CO2 for at least 60 min at 37°C. To 5 ml Krebs-buffer 100 µl of the radioactivity is added (3H-dopamine 1 x 10^-9M final concentration) and 100 µl test substance solution and 200 µl of tissue suspension.

COC(=O)[C@@H]1[C@@H](c2ccc(F)cc2)C[C@@H]2CC[C@H]1N2C [trans isomer of Win 35,428, reference compound]
less potent as compared to the cis isomer (Win 35,428) as a dopamine reuptake inhibitor: ~50 times
